The record followed here is the supplement of paper PMC5998384.

The test system of data set [1] is HeLa Kyoto. Nature of the data set: solubility in G1/S (NP-40 vs SDS abundance) (log2 ratio); higher = more soluble. The note with it: cell cycle stage: G1/S.
Data set [2] has as its system HeLa Kyoto. In words: thermal stability score vs G1/S (z-score of summed log2 fold changes over temperatures); higher = more thermally stable than in G1/S.
Data set [3] has as its system HeLa Kyoto. Nature of the data set: melting temperature (median over replicates), in situ; higher = more thermally stable.
Data set [4] relates to HeLa Kyoto. In words: solubility change mitosis vs G1/S (difference of NP-40 vs SDS log2 ratios) (log2 ratio difference); higher = more soluble in mitosis.
[5] abbreviates: cell cycle stage: early G1 (4.5 h after nocodazole release).
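Wherever melting temperature (median over replicates), in situ is given: HeLa Kyoto cells synchronized by double thymidine or nocodazole block, proteins quantified by TMT10plex mass spectrometry, three independent biological replicates.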
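Wherever solubility change mitosis vs G1/S (difference of NP-40 vs SDS log2 ratios) is given: synchronized HeLa Kyoto cells (double thymidine block for G1/S, nocodazole release for mitosis), protein amounts in NP-40 versus SDS lysates quantified by mass spectrometry, three biological replicates.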
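Wherever solubility in G1/S (NP-40 vs SDS abundance) is given: HeLa Kyoto cells arrested at G1/S by double thymidine block, proteins quantified by TMT10plex mass spectrometry in mild NP-40 versus SDS extracts, three biological replicates.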
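Wherever thermal stability score vs G1/S (z-score of summed log2 fold changes over temperatures) is given: synchronized HeLa Kyoto cells, proteins quantified by TMT10plex mass spectrometry, three biological replicates, mitosis taken 0.5 h after nocodazole release, G1/S directly after double thymidine block.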

With “MEEGGRDKAPVQPQQSPAAAPGGTDEKPSGKERRDAGDKDKEQELSEEDKQLQDELEMLVERLGEKDTSLYRPALEELRRQIRSSTTSMTSVPKPLKFLRPHYGKLKEIYENMAPGENKRFAADIISVLAMTMSGERECLKYRLVGSQEELASWGHEYVRHLAGEVAKEWQELDDAEKVQREPLLTLVKEIVPYNMAHNAEHEACDLLMEIEQVDMLEKDIDENAYAKVCLYLTSCVNYVPEPENSALLRCALGVFRKFSRFPEALRLALMLNDMELVEDIFTSCKDVVVQKQMAFMLGRHGVFLELSEDVEEYEDLTEIMSNVQLNSNFLALARELDIMEPKVPDDIYKTHLENNRFGGSGSQVDSARMNLASSFVNGFVNAAFGQDKLLTDDGNKWLYKNKDHGMLSAAASLGMILLWDVDGGLTQIDKYLYSSEDYIKSGALLACGIVNSGVRNECDPALALLSDYVLHNSNTMRLGSIFGLGLAYAGSNREDVLTLLLPVMGDSKSSMEVAGVTALACGMIAVGSCNGDVTSTILQTIMEKSETELKDTYARWLPLGLGLNHLGKGEAIEAILAALEVVSEPFRSFANTLVDVCAYAGSGNVLKVQQLLHICSEHFDSKEKEEDKDKKEKKDKDKKEAPADMGAHQGVAVLGIALIAMGEEIGAEMALRTFGHLLRYGEPTLRRAVPLALALISVSNPRLNILDTLSKFSHDADPEVSYNSIFAMGMVGSGTNNARLAAMLRQLAQYHAKDPNNLFMVRLAQGLTHLGKGTLTLCPYHSDRQLMSQVAVAGLLTVLVSFLDVRNIILGKSHYVLYGLVAAMQPRMLVTFDEELRPLPVSVRVGQAVDVVGQAGKPKTITGFQTHTTPVLLAHGERAELATEEFLPVTPILEGFVILRKNPNYDL [PSMD2]”, the “solubility in G1/S (log2)” value in data set [1] was determined as 0.049. For the same sequence, the thermal stability score in data set [2] (setting [5]) was 1.49; in data set [2] (cell cycle stage: mitosis) it was 1.55. In addition, the melting temperature in data set [3] (cell cycle stage: G1/S) came to 52.2 °C; in data set [3] (cell cycle stage: mitosis), 51.9 °C. Besides, the “solubility change mitosis (log2)” value in data set [4] was -0.133.

Turning to “MGCTLSAEDKAAVERSKMIDRNLREDGEKAAREVKLLLLGAGESGKSTIVKQMKIIHEAGYSEEECKQYKAVVYSNTIQSIIAIIRAMGRLKIDFGDSARADDARQLFVLAGAAEEGFMTAELAGVIKRLWKDSGVQACFNRSREYQLNDSAAYYLNDLDRIAQPNYIPTQQDVLRTRVKTTGIVETHFTFKDLHFKMFDVGGQRSERKKWIHCFEGVTAIIFCVALSDYDLVLAEDEEMNRMHESMKLFDSICNNKWFTDTSIILFLNKKDLFEEKIKKSPLTICYPEYAGSNTYEEAAAYIQCQFEDLNKRKDTKEIYTHFTCATDTKNVQFVFDAVTDVIIKNNLKDCGLF [GNAI1]”, the “solubility in G1/S (log2)” value in data set [1] was -0.716. Moreover, the thermal stability score is -2.75 in data set [2] (setting [5]) and 0.954 in data set [2] (cell cycle stage: mitosis). In addition, the melting temperature in data set [3] (cell cycle stage: G1/S) is 55.5 °C; in data set [3] (cell cycle stage: mitosis), 55.7 °C. The “solubility change mitosis (log2)” value in data set [4] was -0.105.

As to “MGLLSILRKLKSAPDQEVRILLLGLDNAGKTTLLKQLASEDISHITPTQGFNIKSVQSQGFKLNVWDIGGQRKIRPYWKNYFENTDILIYVIDSADRKRFEETGQELAELLEEEKLSCVPVLIFANKQDLLTAAPASEIAEGLNLHTIRDRVWQIQSCSALTGEGVQDGMNWVCKNVNAKKK [ARL3]”, the “solubility in G1/S (log2)” value in data set [1] turned out to be 0.543. The thermal stability score was -1.54 in data set [2] (setting [5]) and -1.98 in data set [2] (cell cycle stage: mitosis). Also, the melting temperature in data set [3] (cell cycle stage: G1/S) stood at 53.2 °C; in data set [3] (cell cycle stage: mitosis) it was 54.6 °C. Also, in data set [4], the “solubility change mitosis (log2)” value was determined as 0.0342.

In the case of “MGLLTILKKMKQKERELRLLMLGLDNAGKTTILKKFNGEDIDTISPTLGFNIKTLEHRGFKLNIWDVGGQKSLRSYWRNYFESTDGLIWVVDSADRQRMQDCQRELQSLLVEERLAGATLLIFANKQDLPGALSSNAIREVLELDSIRSHHWCIQGCSAVTGENLLPGIDWLLDDISSRIFTAD [ARL2]”, the “solubility in G1/S (log2)” value in data set [1] was found to be 0.111. Moreover, the results for the thermal stability score in data set [2] (setting [5]) and in data set [2] (cell cycle stage: mitosis) were 1.79 and 1.05, respectively. The melting temperature in data set [3] (cell cycle stage: G1/S) was found to be 53.7 °C; in data set [3] (cell cycle stage: mitosis) it was 53.1 °C. The “solubility change mitosis (log2)” value in data set [4] is -0.106.

On to “MGNSRSRVGRSFCSQFLPEEQAEIDQLFDALSSDKNSPNVSSKSFSLKALQNHVGEALPPEMVTRLYDGMRRVDLTGKAKGPSENVSQEQFTASMSHLLKGNSEEKSLMIMKMISATEGPVKAREVQKFTEDLVGSVVHVLSHRQELRGWTGKEAPGPNPRVQVLAAQLLSDMKLQDGKRLLGPQWLDYDCDRAVIEDWVFRVPHVAIFLSVVICKGFLILCSSLDLTTLVPERQVDQGRGFESILDVLSVMYINAQLPREQRHRWCLLFSSELHGHSFSQLCGHITHRGPCVAVLEDHDKHVFGGFASCSWEVKPQFQGDNRCFLFSICPSMAVYTHTGYNDHYMYLNHGQQTIPNGLGMGGQHNYFGLWVDVDFGKGHSRAKPTCTTYNSPQLSAQENFQFDKMEVWAVGDPSEEQLAKGNKSILDADPEAQALLEISGHSRHSEGLREVPDDE [TLDC1]”, for which, in data set [1], the “solubility in G1/S (log2)” value is -0.0272. Also, the thermal stability score is -0.592 in data set [2] (setting [5]) and -0.996 in data set [2] (cell cycle stage: mitosis). Further, the melting temperature was determined as 52.4 °C in data set [3] (cell cycle stage: G1/S) and 51.6 °C in data set [3] (cell cycle stage: mitosis). The “solubility change mitosis (log2)” value in data set [4] is -0.0768.

With “MGSLKEELLKAIWHAFTALDQDHSGKVSKSQLKVLSHNLCTVLKVPHDPVALEEHFRDDDEGPVSNQGYMPYLNRFILEKVQDNFDKIEFNRMCWTLCVKKNLTKNPLLITEEDAFKIWVIFNFLSEDKYPLIIVSEEIEYLLKKLTEAMGGGWQQEQFEHYKINFDDSKNGLSAWELIELIGNGQFSKGMDRQTVSMAINEVFNELILDVLKQGYMMKKGHRRKNWTERWFVLKPNIISYYVSEDLKDKKGDILLDENCCVESLPDKDGKKCLFLVKCFDKTFEISASDKKKKQEWIQAIHSTIHLLKLGSPPPHKEARQRRKELRKKQLAEQEELERQMKELQAANESKQQELEAVRKKLEEAASRAAEEEKKRLQTQVELQARFSTELEREKLIRQQMEEQVAQKSSELEQYLQRVRELEDMYLKLQEALEDERQARQDEETVRKLQARLLEEESSKRAELEKWHLEQQQAIQTTEAEKQELENQRVLKEQALQEAMEQLEQLELERKQALEQYEEVKKKLEMATNKTKSWKDKVAHHEGLIRLIEPGSKNPHLITNWGPAAFTEAELEEREKNWKEKKTTE [SWAP70]”, the “solubility in G1/S (log2)” value in data set [1] was 0.0573. In addition, the figures for the thermal stability score in data set [2] (setting [5]) and in data set [2] (cell cycle stage: mitosis) were 0.0893 and -1.39, respectively. Moreover, the melting temperature in data set [3] (cell cycle stage: G1/S) is 52.6 °C; in data set [3] (cell cycle stage: mitosis) it was 50.9 °C. The “solubility change mitosis (log2)” value in data set [4] was -0.121.

“MQRADSEQPSKRPRCDDSPRTPSNTPSAEADWSPGLELHPDYKTWGPEQVCSFLRRGGFEEPVLLKNIRENEITGALLPCLDESRFENLGVSSLGERKKLLSYIQRLVQIHVDTMKVINDPIHGHIELHPLLVRIIDTPQFQRLRYIKQLGGGYYVFPGASHNRFEHSLGVGYLAGCLVHALGEKQPELQISERDVLCVQIAGLCHDLGHGPFSHMFDGRFIPLARPEVKWTHEQGSVMMFEHLINSNGIKPVMEQYGLIPEEDICFIKEQIVGPLESPVEDSLWPYKGRPENKSFLYEIVSNKRNGIDVDKWDYFARDCHHLGIQNNFDYKRFIKFARVCEVDNELRICARDKEVGNLYDMFHTRNSLHRRAYQHKVGNIIDTMITDAFLKADDYIEITGAGGKKYRISTAIDDMEAYTKLTDNIFLEILYSTDPKLKDAREILKQIEYRNLFKYVGETQPTGQIKIKREDYESLPKEVASAKPKVLLDVKLKAEDFIVDVINMDYGMQEKNPIDHVSFYCKTAPNRAIRITKNQVSQLLPEKFAEQLIRVYCKKVDRKSLYAARQYFVQWCADRNFTKPQDGDVIAPLITPQKKEWNDSTSVQNPTRLREASKSRVQLFKDDPM [SAMHD1]”: the “solubility in G1/S (log2)” value in data set [1] stood at 0.193. The values for the thermal stability score in data set [2] (setting [5]) and in data set [2] (cell cycle stage: mitosis) were -3.29 and -3.81, respectively. Also, the melting temperature in data set [3] (cell cycle stage: G1/S) stood at 53.6 °C; in data set [3] (cell cycle stage: mitosis) it was 52.6 °C. In data set [4], the “solubility change mitosis (log2)” value was -0.0724.
